Permeability data for macrocyclic peptides

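Lipid, pH, incubation time, direction and concentration are not recorded in the data file. Other peptides of the study may be missing here. Entries at the database's floor value (log10 P of -10) are not listed.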

PAMPA is the parallel artificial membrane permeability assay, which has no cells and reads passive diffusion. Caco-2: transport across a human colon carcinoma cell monolayer. P is given in units of 10^-6 cm/s (from log10 values with two decimals); larger means faster passage. Cells with "–" have no entry in this list.

For CCCC[C@@H]1NC(=O)[C@H](CC(C)C)N(C)C(=O)CN(CCOc2ccccc2)C(=O)[C@H](CC(C)C)NC(=O)CN(CCC)C(=O)[C@H]2CCCN2C1=O the data give PAMPA 2.6 × 10^-6 cm/s.
For CCCCCN1CC(=O)N(C)[C@@H](CC(C)C)C(=O)N[C@@H](CCCC)C(=O)N2CCC[C@@H]2C(=O)N(Cc2ccc3c(c2)OCO3)CC(=O)N[C@@H](CC(C)C)C1=O the data give PAMPA 0.28 × 10^-6 cm/s.
For CCCC[C@@H]1NC(=O)[C@H](CC(C)C)N(C)C(=O)CN(CCOC)C(=O)[C@H](Cc2ccc3ccccc3c2)NC(=O)CN(CCCOC(C)C)C(=O)[C@H]2CCCN2C1=O the data give PAMPA 5.5 × 10^-6 cm/s.
For CCCC[C@@H]1NC(=O)[C@H](CC(C)C)N(C)C(=O)CN(Cc2ccccc2)C(=O)[C@H](Cc2ccccc2)NC(=O)CN(Cc2ccc3c(c2)OCO3)C(=O)[C@H]2CCCN2C1=O the data give PAMPA 0.031 × 10^-6 cm/s.
For CCCC[C@@H]1NC(=O)[C@H](CC(C)C)N(C)C(=O)CN(CCCN2CCCC2=O)C(=O)[C@H](CC(C)C)NC(=O)CN(Cc2ccc3c(c2)OCO3)C(=O)[C@H]2CCCN2C1=O the data give PAMPA 1 × 10^-6 cm/s.
For CCCC[C@@H]1NC(=O)[C@H](CC(C)C)N(C)C(=O)CN(CCc2cccnc2)C(=O)[C@H](C)NC(=O)CN(CC)C(=O)[C@H]2CCCN2C1=O the data give PAMPA 0.04 × 10^-6 cm/s.
For CCCC[C@@H]1NC(=O)[C@H](CC(C)C)N(C)C(=O)CN(CC2CCCCC2)C(=O)[C@H](Cc2ccc3ccccc3c2)NC(=O)CN(CCCCc2ccccc2)C(=O)[C@H]2CCCN2C1=O the data give PAMPA 0.0014 × 10^-6 cm/s.
For CCCC[C@@H]1NC(=O)[C@H](CC(C)C)N(C)C(=O)CN(CCCc2cnn(C)c2)C(=O)[C@H](C)NC(=O)CN(Cc2ccc3c(c2)OCO3)C(=O)[C@H]2CCCN2C1=O the data give PAMPA 0.59 × 10^-6 cm/s.
For CCCC[C@@H]1NC(=O)[C@H](CC(C)C)N(C)C(=O)CN(Cc2ccccc2)C(=O)[C@H](CC(C)C)NC(=O)CN(CC)C(=O)[C@H]2CCCN2C1=O the data give PAMPA 10 × 10^-6 cm/s.
For CCCC[C@@H]1NC(=O)[C@H](CC(C)C)N(C)C(=O)CN(CCCN2CCCC2=O)C(=O)[C@H](C)NC(=O)CN(Cc2ccc(Cl)cc2)C(=O)[C@H]2CCCN2C1=O the data give PAMPA 0.36 × 10^-6 cm/s.
For CCCC[C@@H]1NC(=O)[C@H](CC(C)C)N(C)C(=O)CN(CCc2cccnc2)C(=O)[C@H](Cc2ccccc2)NC(=O)CN(CCN2CCOCC2)C(=O)[C@H]2CCCN2C1=O the data give PAMPA 0.22 × 10^-6 cm/s.
For CCCC[C@@H]1NC(=O)[C@H](CC(C)C)N(C)C(=O)CN(CCc2cccnc2)C(=O)[C@H](Cc2ccccc2)NC(=O)CN(CC(C)C)C(=O)[C@H]2CCCN2C1=O the data give PAMPA 4.5 × 10^-6 cm/s.
For CCCC[C@@H]1NC(=O)[C@H](CC(C)C)N(C)C(=O)CN(CCCc2cnn(C)c2)C(=O)[C@H](Cc2ccc3ccccc3c2)NC(=O)CN(Cc2ccc(Cl)cc2)C(=O)[C@H]2CCCN2C1=O the data give PAMPA 0.01 × 10^-6 cm/s.
For CCCC[C@@H]1NC(=O)[C@H](CC(C)C)N(C)C(=O)CN(Cc2ccccc2)C(=O)[C@H](C)NC(=O)CN(Cc2ccc3c(c2)OCO3)C(=O)[C@H]2CCCN2C1=O the data give PAMPA 7.8 × 10^-6 cm/s.
For CCCC[C@@H]1NC(=O)[C@H](CC(C)C)N(C)C(=O)CN(CCCN2CCCC2=O)C(=O)[C@H](CC(C)C)NC(=O)CN(Cc2ccccc2Cn2cccn2)C(=O)[C@H]2CCCN2C1=O the data give PAMPA 0.5 × 10^-6 cm/s.
For CCCC[C@@H]1NC(=O)[C@H](CC(C)C)N(C)C(=O)CN(CCOC)C(=O)[C@H](C)NC(=O)CN(Cc2cc(CC(C)C)on2)C(=O)[C@H]2CCCN2C1=O the data give PAMPA 3 × 10^-6 cm/s and Caco-2 0.71 × 10^-6 cm/s.
For CCCC[C@@H]1NC(=O)[C@H](CC(C)C)N(C)C(=O)CN(Cc2ccccc2)C(=O)[C@H](Cc2ccccc2)NC(=O)CN(Cc2ccccc2Cn2cccn2)C(=O)[C@H]2CCCN2C1=O the data give PAMPA 0.35 × 10^-6 cm/s.
For CCCC[C@@H]1NC(=O)[C@H](CC(C)C)N(C)C(=O)CN(CCCc2ccccc2)C(=O)[C@H](Cc2ccc3ccccc3c2)NC(=O)CN(Cc2ccccc2Cn2cccn2)C(=O)[C@H]2CCCN2C1=O the data give PAMPA 0.016 × 10^-6 cm/s.
For CCCC[C@@H]1NC(=O)[C@H](CC(C)C)N(C)C(=O)CN(CCOc2ccccc2)C(=O)[C@H](C)NC(=O)CN(Cc2ccc(Cl)cc2)C(=O)[C@H]2CCCN2C1=O the data give PAMPA 0.5 × 10^-6 cm/s.

The first 2 entries again:

SMILES	PAMPA (10^-6 cm/s)	Caco-2 (10^-6 cm/s)
CCCC[C@@H]1NC(=O)[C@H](CC(C)C)N(C)C(=O)CN(CCOc2ccccc2)C(=O)[C@H](CC(C)C)NC(=O)CN(CCC)C(=O)[C@H]2CCCN2C1=O	2.6	–
CCCCCN1CC(=O)N(C)[C@@H](CC(C)C)C(=O)N[C@@H](CCCC)C(=O)N2CCC[C@@H]2C(=O)N(Cc2ccc3c(c2)OCO3)CC(=O)N[C@@H](CC(C)C)C1=O	0.28	–

Collected by the curators of CycPeptMPDB (Li et al. 2023) from Furukawa et al. 2016, doi:10.1021/acs.jmedchem.6b01246.